Columns and labels:
[1] = biological target: Estrogen receptor (Homo sapiens) (UniProt P03372); assay: Displacement of [3H]estradiol from human recombinant ERalpha assessed as relative binding affinity after 1 hr by liquid scintillation counting relative to estradiol
In short: (§1)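 Recombinant human ERα or ERβ (0.25 pmol) incubated with [3H]-E2 (10 nM) plus test compound, 1 h at room temperature; compound in DMSO (5% final). Nonspecific binding defined with diethylstilbestrol (10 µM). Receptor–ligand complexes captured on hydroxyapatite, washed, resuspended in ethanol, counted by liquid scintillation.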

Chains of the proteins cited; added tags and fusions are not shown.
UniProt P03372, whole entry: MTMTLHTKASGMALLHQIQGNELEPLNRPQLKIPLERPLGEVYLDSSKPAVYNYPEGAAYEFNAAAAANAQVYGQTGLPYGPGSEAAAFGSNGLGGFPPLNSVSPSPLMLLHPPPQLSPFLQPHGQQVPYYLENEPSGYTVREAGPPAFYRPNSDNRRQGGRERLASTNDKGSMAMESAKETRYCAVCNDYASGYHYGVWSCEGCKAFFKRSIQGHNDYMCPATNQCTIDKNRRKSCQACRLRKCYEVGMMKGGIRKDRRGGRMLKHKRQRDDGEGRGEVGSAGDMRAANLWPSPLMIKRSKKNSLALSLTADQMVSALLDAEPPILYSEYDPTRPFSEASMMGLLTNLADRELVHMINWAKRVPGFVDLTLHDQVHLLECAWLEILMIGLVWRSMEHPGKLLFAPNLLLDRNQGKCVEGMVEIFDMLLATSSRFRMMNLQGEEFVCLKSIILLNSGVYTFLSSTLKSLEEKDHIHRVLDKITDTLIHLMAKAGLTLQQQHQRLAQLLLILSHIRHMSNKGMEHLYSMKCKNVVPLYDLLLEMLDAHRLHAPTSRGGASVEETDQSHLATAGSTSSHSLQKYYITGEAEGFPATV
UniProt Q92731, whole entry: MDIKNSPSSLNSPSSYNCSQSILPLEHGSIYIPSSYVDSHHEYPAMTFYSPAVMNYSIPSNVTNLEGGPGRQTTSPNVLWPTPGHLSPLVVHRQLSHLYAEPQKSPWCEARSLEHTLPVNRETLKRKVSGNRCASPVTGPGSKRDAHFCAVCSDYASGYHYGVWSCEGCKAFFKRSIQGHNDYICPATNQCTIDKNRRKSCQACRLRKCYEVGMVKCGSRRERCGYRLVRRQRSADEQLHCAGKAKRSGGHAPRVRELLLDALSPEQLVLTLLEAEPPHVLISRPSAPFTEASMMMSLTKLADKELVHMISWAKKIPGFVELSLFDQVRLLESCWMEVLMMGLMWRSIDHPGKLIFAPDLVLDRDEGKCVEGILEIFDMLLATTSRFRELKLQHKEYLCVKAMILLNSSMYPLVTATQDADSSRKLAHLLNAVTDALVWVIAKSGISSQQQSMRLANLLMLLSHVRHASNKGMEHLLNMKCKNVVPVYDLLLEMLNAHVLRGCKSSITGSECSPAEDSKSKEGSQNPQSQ

[2] = biological target: Estrogen receptor beta (Homo sapiens) (UniProt Q92731); assay: Displacement of [3H]estradiol from human recombinant ERbeta assessed as relative binding affinity after 1 hr by liquid scintillation counting relative to estradiol; in short: as §1

`COc1cccc(-c2ccc(C(=O)N(C)Cc3cccc(O)c3)s2)c1` was tested, and the RBA [1] was under 0.1% and the RBA [2] was under 0.1%.

From ChEMBL document CHEMBL1914317, “Triazole ring-opening leads to the discovery of potent nonsteroidal 17β-hydroxysteroid dehydrogenase type 2 inhibitors” (Eur J Med Chem, 2011)
